Results from patent US20130197085A1, “AGENT AND METHOD FOR STABILIZING MEMBRANE PROTEIN” (priority 2007, published 2013).

Sequences of proteins named here, by UniProt entry; tags and fusion partners are left off.
UniProt O95342, whole entry L339V: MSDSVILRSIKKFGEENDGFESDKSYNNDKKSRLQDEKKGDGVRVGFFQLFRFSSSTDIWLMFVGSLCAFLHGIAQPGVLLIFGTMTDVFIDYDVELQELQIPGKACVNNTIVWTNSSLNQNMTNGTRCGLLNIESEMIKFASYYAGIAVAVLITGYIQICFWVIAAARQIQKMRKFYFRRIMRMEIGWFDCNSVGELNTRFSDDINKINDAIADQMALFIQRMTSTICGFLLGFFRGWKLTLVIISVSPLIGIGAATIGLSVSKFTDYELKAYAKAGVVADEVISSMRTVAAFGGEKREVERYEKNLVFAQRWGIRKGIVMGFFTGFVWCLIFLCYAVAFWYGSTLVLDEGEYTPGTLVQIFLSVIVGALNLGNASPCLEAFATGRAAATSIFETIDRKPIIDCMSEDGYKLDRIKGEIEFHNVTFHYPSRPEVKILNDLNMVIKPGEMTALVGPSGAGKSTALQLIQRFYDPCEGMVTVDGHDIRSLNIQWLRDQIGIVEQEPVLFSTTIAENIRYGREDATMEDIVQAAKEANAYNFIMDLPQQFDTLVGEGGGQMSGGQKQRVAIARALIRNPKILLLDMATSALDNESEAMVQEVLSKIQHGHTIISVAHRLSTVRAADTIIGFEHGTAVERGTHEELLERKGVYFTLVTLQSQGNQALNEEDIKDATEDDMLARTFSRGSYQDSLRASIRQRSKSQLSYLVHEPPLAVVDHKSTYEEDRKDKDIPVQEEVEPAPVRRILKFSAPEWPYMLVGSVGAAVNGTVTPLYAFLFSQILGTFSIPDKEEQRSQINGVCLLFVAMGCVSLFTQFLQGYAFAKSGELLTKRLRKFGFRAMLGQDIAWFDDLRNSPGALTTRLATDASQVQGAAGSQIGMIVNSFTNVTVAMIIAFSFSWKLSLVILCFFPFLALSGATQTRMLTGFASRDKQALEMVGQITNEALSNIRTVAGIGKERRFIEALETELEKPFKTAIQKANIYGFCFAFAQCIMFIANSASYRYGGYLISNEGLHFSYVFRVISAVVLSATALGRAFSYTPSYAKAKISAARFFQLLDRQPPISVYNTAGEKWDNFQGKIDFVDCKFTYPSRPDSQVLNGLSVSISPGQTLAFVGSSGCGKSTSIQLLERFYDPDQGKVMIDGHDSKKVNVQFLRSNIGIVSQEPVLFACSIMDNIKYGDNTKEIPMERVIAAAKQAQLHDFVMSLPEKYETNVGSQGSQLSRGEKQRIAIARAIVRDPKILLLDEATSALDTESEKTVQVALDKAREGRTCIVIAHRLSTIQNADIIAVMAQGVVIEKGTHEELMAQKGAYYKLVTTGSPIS

Target: T1, wild-type BSEP (Homo sapiens, UniProt O95342, L339V)
T1 construct: expressed in transfected cells; host or cells: MDCKII cells infected with recombinant adenovirus
Assay: Transcellular transport assay of [^3H] TC across MDCKII monolayer
Type: cell-based
Conditions: other carboxylic acids, 1 mM, 24 hours; FIG. 10
Experimental: MDCKII cells were dispersed on a Transwell membrane insert (pore size: […]; Falcon) of a 24-well plate, resulting in a density of 1.5×10^5 cells/insert. Two days after the culture, the confluent cells were infected with recombinant adenoviruses having the cDNAs of wild-type, E297G and D482G BSEPs, and GFP, at 50 MOI. […] After completion of the treatment for 24 hours, a transcellular transport assay was carried out (see Mita et al., Am J Physiol Gastrointest Liver Physiol 290: G550-G556, 2006).
The apparent efflux clearance across the apical membrane (PSapical) was calculated by dividing a steady rate of the transcellular transport of [^3H] TC for 2 hours by the intracellular concentration of the [^3H] TC at the termination of the experiment (2 hours later).

CCCCCCCC(=O)O [octanoic acid]
efflux of [^3H] TC from the base side to the apical side (in words): increased
